In PubChem BioAssay AID1645856 (Buhrlage Lab, Dana-Farber Cancer Institute and Novartis …, 2021) one finds inhibition data, which are given here for seven compounds.

Amino acid sequences for entries named in this document (tags omitted).
UniProt Q14694, whole entry: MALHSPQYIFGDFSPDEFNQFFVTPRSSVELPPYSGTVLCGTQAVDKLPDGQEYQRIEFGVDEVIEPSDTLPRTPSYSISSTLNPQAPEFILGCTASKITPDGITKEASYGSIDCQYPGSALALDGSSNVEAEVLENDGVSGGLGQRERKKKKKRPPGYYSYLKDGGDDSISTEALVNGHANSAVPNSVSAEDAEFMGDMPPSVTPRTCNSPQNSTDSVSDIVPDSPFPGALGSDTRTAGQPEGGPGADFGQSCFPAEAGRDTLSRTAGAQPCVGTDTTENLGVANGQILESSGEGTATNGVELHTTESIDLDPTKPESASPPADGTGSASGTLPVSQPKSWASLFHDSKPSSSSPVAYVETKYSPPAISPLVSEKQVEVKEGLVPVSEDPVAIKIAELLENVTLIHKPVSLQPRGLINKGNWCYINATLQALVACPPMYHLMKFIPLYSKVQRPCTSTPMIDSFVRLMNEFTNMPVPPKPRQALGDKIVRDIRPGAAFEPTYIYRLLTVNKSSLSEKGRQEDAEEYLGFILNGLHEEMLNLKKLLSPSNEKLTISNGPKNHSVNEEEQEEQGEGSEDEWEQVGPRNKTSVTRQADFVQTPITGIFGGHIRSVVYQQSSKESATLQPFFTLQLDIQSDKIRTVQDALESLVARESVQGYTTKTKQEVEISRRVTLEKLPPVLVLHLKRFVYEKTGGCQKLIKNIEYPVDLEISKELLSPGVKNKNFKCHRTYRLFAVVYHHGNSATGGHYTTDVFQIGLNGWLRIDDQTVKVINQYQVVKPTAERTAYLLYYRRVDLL

For orientation: inhibition means the relative decrease from the control value, in per cent.

Structures are written as SMILES. The list shows a part of the results, in another mix than the full data. Some of these compounds have results that are not shown, active ones among them. Activity calls are given as the source filed them. Cut-off read from the data, not from the text of the source: active = inhibition above about 30%; inactive = the rest.

This experiment deals with Ubiquitin carboxyl-terminal hydrolase 10 (Homo sapiens) (UniProt Q14694). Description: blocks human USP10 ubiquitin-rhodamine cleavage (AID 1645856). To be noted: purified USP10, Ub-rhodamine fluorescence, 60 min; at 20 µM; hits give high values.
With `COc1ccc(C(=O)NCC2(N3CCOCC3)CCCCC2)cc1`, the inhibition was inactive: -0.0201%. In the case of `O=C(NCC1(N2CCCCC2)CCCCC1)c1ccc2c(c1)OCCO2` it was inactive: -0.44%; in that of `Cc1c(C(=O)NCC2(N(C)C)CCCCC2)oc2ccc(F)cc12`, inactive: -1.21%; in that of `COc1cccc(C(=O)NCC2(N3CCCCC3)CCCCC2)c1`, inactive: -3.74%. Under `Cc1c(C(=O)NCC2(N(C)C)CCCCC2)oc2ccccc12` stands inactive: 2.06%. In the case of `O=C(NCC1(N2CCCCC2)CCCCC1)c1ccc2ccccc2c1` it was inactive: -0.014%; in that of `O=C(NCC1(N2CCOCC2)CCCCC1)c1ccccc1F`, inactive: 3.47%.
